# Only a part is listed here, and it is no random draw. Some salts or complexes appear as unconnected parts, following the source record. Calls of active or inactive are those of the source.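 Rule for the calls: active = inhibition above the mean of all tested compounds plus 3 SD (cut at about 24% in these data); inactive = the rest.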
# Sequences of proteins named here, by UniProt entry; tags and fusion partners are left off.
# UniProt P68402, whole entry: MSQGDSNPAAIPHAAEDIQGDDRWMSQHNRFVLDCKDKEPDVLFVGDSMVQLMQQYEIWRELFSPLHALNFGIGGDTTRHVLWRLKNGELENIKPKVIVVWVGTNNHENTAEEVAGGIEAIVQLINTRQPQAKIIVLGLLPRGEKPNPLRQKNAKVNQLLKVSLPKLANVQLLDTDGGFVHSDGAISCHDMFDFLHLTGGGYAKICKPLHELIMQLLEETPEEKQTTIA
# Target: Platelet-activating factor acetylhydrolase IB subunit alpha2 (Homo sapiens) (UniProt P68402)
# Assay: PAFAH1B2 enzyme inhibitors, primary screen, biochemical, fluorescence polarization, human (AID 492953);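 note: 0% = enzyme with DMSO and 100% = wells lacking PAFAH1B2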
# Details: recombinant PAFAH1B2, FP-rhodamine activity probe, at 3.39 µM, stronger effect = higher value
row,SMILES,inhibition
1,O=[N+]([O-])c1cc([N+](=O)[O-])c(Nc2cccnc2)c([N+](=O)[O-])c1,inactive: 7.84%
2,O=[N+]([O-])c1ccc2c(c1)C=Nc1ccccc1O2,inactive: -0.68%
3,CC(C)(C)c1ccc(OP(C)(=O)Nc2ccc(SC(F)(F)F)cc2)cc1 (stereo not given),active: 30.4%
4,Cc1cccc(C)c1OP(C)(N)=O (stereo not given),inactive: -4.78%
5,COc1ccccc1OP(C)(=O)Nc1ccc(C)cc1 (stereo not given),inactive: -1.78%
6,Cc1ccc(NP(C)(=O)Oc2ccccc2)c(C)c1 (stereo not given),inactive: 6.96%
7,CCOC(=O)c1ccc(NP(C)(=O)Oc2ccccc2)cc1 (stereo not given),inactive: -1.74%
8,Cc1cc(C)cc(OP(C)(N)=O)c1 (stereo not given),inactive: 2.67%
9,COc1ccccc1OP(C)(=O)Nc1cc(Cl)ccc1C (stereo not given),inactive: 3.7%
10,COc1ccc(OP(C)(=O)Nc2cccc(F)c2)cc1 (stereo not given),inactive: 4.58%
11,CCN(CC)CCCOC(=O)C(O)(c1ccccc1)c1ccccc1,inactive: 3.28%
12,Cc1cccc(C)c1OP(C)(=O)Nc1ccc(SC(F)(F)F)cc1 (stereo not given),inactive: 1.72%
13,CP(=O)(Oc1ccccc1)OC(c1ccccc1)C(F)(F)F (stereo not given),inactive: 9.57%
14,CP(=O)(NC(=O)Nc1ccccc1)Oc1ccccc1 (stereo not given),inactive: 3.36%
15,CCc1ccc(OP(C)(=O)N2CCN(c3ccc([N+](=O)[O-])cc3)CC2)cc1 (stereo not given),inactive: 10.5%
16,Cc1cc(C)cc(OP(C)(=O)Nc2ccc(SC(F)(F)F)cc2)c1 (stereo not given),inactive: 3.89%
17,CCOC(=O)c1ccc(NP(C)(=O)Oc2ccc(OC)cc2)cc1 (stereo not given),inactive: 2.58%
18,CCOP(C)(=S)SCC(=O)NC(C)C(=O)O (stereo not given),inactive: 12.6%
19,CP(=O)(Nc1ccccn1)Oc1ccc(Cl)cc1 (stereo not given),inactive: 2.24%
20,CP(=S)(Nn1cnnc1)Oc1ccccc1 (stereo not given),inactive: 4.76%
21,CP(=O)(Nc1ccccc1Br)Oc1ccccc1 (stereo not given),inactive: 2.85%
22,COc1ccccc1OP(C)(=O)Nc1ccccc1 (stereo not given),inactive: 6.09%
23,CC1=C2N=C(C=C3N=C(C(C)=C4[N-][C@@](C)([C@@H]5N=C1[C@](C)(CCC(=O)NC[C@@H](C)OP(=O)([O-])O[C@H]1[C@@H](O)[C@@H](n6cnc7cc(C)c(C)cc76)O[C@@H]1CO)[C@H]5CC(N)=O)[C@@](C)(CC(N)=O)[C@@H]4CCC(N)=O)[C@@](C)(CC(N)=O)[C@@H]3CCC(N)=O)C(C)(C)[C@@H]2CCC(N)=O.[C-]#N.[Co+3],inactive: 6.62%

row,SMILES,inhibition
1,O=[N+]([O-])c1cc([N+](=O)[O-])c(Nc2nnnn2CCO)c([N+](=O)[O-])c1,inactive: 7.61%
2,CCOC(=O)C(CC)C1=NC(C)(C)Cc2ccccc21.O=[N+]([O-])c1cc([N+](=O)[O-])c(O)c([N+](=O)[O-])c1 (stereo not given),inactive: 8.31%
3,CN1CCCCC1COC(=O)C1(O)c2ccccc2CCc2ccccc21 (stereo not given),inactive: -0.55%
4,COc1ccccc1OP(C)(=O)Nc1c(C)cccc1C (stereo not given),inactive: 4.83%
5,CCCOc1ccc(NP(C)(=O)Oc2ccc(Cl)cc2)cc1 (stereo not given),inactive: 2.44%
6,CP(=O)(Nc1ccc(SC(F)(F)F)cc1)Oc1ccccc1 (stereo not given),inactive: 7.78%
7,O=[N+]([O-])c1cc([N+](=O)[O-])c(-n2nnc3ccccc32)c([N+](=O)[O-])c1,inactive: 1.03%
8,O=[N+]([O-])c1cc([N+](=O)[O-])c(-c2cnn(-c3ccccc3)c2)c([N+](=O)[O-])c1,inactive: 1.87%
9,Cc1nc2ccc3ccccc3c2s1.O=[N+]([O-])c1cc([N+](=O)[O-])c(O)c([N+](=O)[O-])c1,inactive: 8.15%
10,COc1ccccc1OP(C)(=O)Nc1cccc(Br)c1 (stereo not given),inactive: 1.25%
11,CCOC(=O)c1ccc(NP(C)(=O)Oc2cc(C)cc(C)c2)cc1 (stereo not given),inactive: -1.21%
12,Cc1cc(C)cc(OP(C)(=O)Nc2ccc(C)cc2C)c1 (stereo not given),inactive: -1.44%
13,Cc1ccc(C)c(NP(C)(=O)Oc2ccccc2)c1 (stereo not given),inactive: 0.53%
14,Cc1cc(C)cc(OP(C)(=O)Nc2ccccn2)c1 (stereo not given),inactive: 7.77%
15,CP(=O)(Nc1cccc(Br)c1)Oc1ccccc1 (stereo not given),inactive: 4.82%
16,O=C(O)c1cccc(Nc2c([N+](=O)[O-])cc([N+](=O)[O-])cc2[N+](=O)[O-])c1,inactive: 4.44%
17,CC1=NCCc2c1[nH]c1ccccc21.O=[N+]([O-])c1cc([N+](=O)[O-])c(O)c([N+](=O)[O-])c1,inactive: -2.37%
18,CCOC(=O)c1ccc(NP(C)(=O)Oc2ccc(F)cc2)cc1 (stereo not given),inactive: 2.06%
19,COc1ccc(OP(C)(=O)Nc2ccc(SC(F)(F)F)cc2)cc1 (stereo not given),inactive: 13.1%
20,Cc1c([N+](=O)[O-])cc([N+](=O)[O-])c(Br)c1[N+](=O)[O-],inactive: 2.96%
21,CCN(CC)CCCOC(=O)C(O)(c1ccccc1)C1CCCCC1 (stereo not given),inactive: 0.26%
22,CP(=O)(Nc1ccccc1)Oc1ccc(F)cc1 (stereo not given),inactive: -2.09%
23,CCCCCOc1ccc(NP(C)(=O)Oc2ccc(Cl)cc2Cl)cc1 (stereo not given),inactive: -1.42%

row,SMILES,inhibition
1,O=[N+]([O-])c1cc([N+](=O)[O-])c(OC2CCCCC2O)c([N+](=O)[O-])c1 (stereo not given),inactive: 1.57%
2,CP(=O)(Nc1ccccc1F)Oc1ccccc1 (stereo not given),inactive: 3.43%
3,CC(C)c1ccc(OP(C)(=O)Nc2ccc(SC(F)(F)F)cc2)cc1 (stereo not given),active: 56.7%
4,O=C(OC1CN2CCC1CC2)c1ccc([N+](=O)[O-])cc1 (stereo not given),inactive: 6.23%
5,O=C(OCCN1CCN(CCOCc2ccccc2)CC1)C(O)(c1ccccc1)c1ccccc1,inactive: -1.64%
6,COc1ccc2c(c1O)-c1c(O)c(OC)cc3c1[C@H](C2)[N+](C)(C)CC3.O=[N+]([O-])c1cc([N+](=O)[O-])c([O-])c([N+](=O)[O-])c1[O-],inactive: 2.76%
7,CP(=O)(Nc1ccc(SC(F)(F)F)cc1)Oc1ccc(F)cc1 (stereo not given),inactive: 8.26%
8,CCOP(C)(=S)SCC(=O)NC(C)(CC)C(=O)O (stereo not given),inactive: 3.73%
9,CP(=O)(Nc1ccc2c(c1)OCCO2)Oc1ccccc1 (stereo not given),inactive: 3.55%
10,Cc1ccccc1NP(C)(=O)Nc1ccccc1C,inactive: 4.56%
11,COc1ccc(OP(C)(=O)Nc2cccc(Br)c2)cc1 (stereo not given),inactive: 0.69%
12,CN(C)CCOC(=O)C(O)(c1ccccc1)C1CCCCC1 (stereo not given),inactive: -0.36%
13,COc1ccc(NP(C)(=O)Oc2ccccc2OC)cc1 (stereo not given),inactive: 3.8%
14,O=[N+]([O-])c1ccc(OP2(=O)COCCO2)cc1 (stereo not given),inactive: 3.27%
15,Cc1cc(-c2cccc3ccccc23)c(C)cn1.O=[N+]([O-])c1cc([N+](=O)[O-])c(O)c([N+](=O)[O-])c1,inactive: 9.08%
16,O=[N+]([O-])c1cc([N+](=O)[O-])c(NCC2CCS(=O)(=O)C2)c([N+](=O)[O-])c1 (stereo not given),inactive: -6.04%
17,Cc1c(C(c2ccc3c(c2)OCO3)c2c(C)n(C)n(-c3ccccc3)c2=O)c(=O)n(-c2ccccc2)n1C.O=[N+]([O-])c1cc([N+](=O)[O-])c(O)c([N+](=O)[O-])c1,inactive: 4.53%
18,CCOC(=O)c1ccc(NP(C)(=O)Oc2ccc(Cl)cc2)cc1 (stereo not given),inactive: 4.35%
19,CP(=O)(OC12CC3CC(CC(C3)C1)C2)OC12CC3CC(CC(C3)C1)C2,inactive: 9.84%
20,CCN(CC)CC(O)COC(=O)C(O)(c1ccccc1)C1CCCCC1 (stereo not given),inactive: 5.32%
21,COc1ccc(OP(C)(=O)Nc2ccc(Br)cc2)cc1 (stereo not given),inactive: -0.04%
22,COc1ccccc1OP(C)(=O)Nc1c(C)n(C)n(-c2ccccc2)c1=O (stereo not given),inactive: -0.13%
23,O=C(OCCCN1CCCC1)C(O)(c1ccccc1)C1CCCCC1 (stereo not given),inactive: 0.79%

row,SMILES,inhibition
1,CP(=O)(Oc1ccccc1)N1CCOC1=O (stereo not given),inactive: 5.72%
2,CCc1ccc(OP(C)(=O)Nc2cccnc2)cc1 (stereo not given),inactive: -0.65%
3,COc1ccccc1OP(C)(=O)Nc1ccccc1Br (stereo not given),inactive: 0.98%
4,CC(C)(C)c1ccc(OP(C)(=O)O)cc1,inactive: 5.2%
5,CP(=O)(Nc1ccc(Cl)cc1)Oc1ccc(F)cc1 (stereo not given),inactive: 2.03%
6,CN(C)C(=O)c1c([N+](=O)[O-])cc([N+](=O)[O-])cc1[N+](=O)[O-],inactive: -1.02%
7,COc1ccccc1OP(C)(=O)Nc1ccc(Br)cc1 (stereo not given),inactive: -0.57%
8,COc1ccc(OP(C)(=O)Nc2ccccn2)cc1 (stereo not given),inactive: -7.12%
9,CN(C)CCOC(=O)C(O)(c1ccccc1)C1CCCC1 (stereo not given),inactive: -2.39%
10,Cc1c(NP(C)(=O)Oc2ccc(C(C)C)cc2)c(=O)n(-c2ccccc2)n1C (stereo not given),inactive: -2.66%
11,O=[N+]([O-])c1cc([N+](=O)[O-])c(Nc2ccccn2)c([N+](=O)[O-])c1,inactive: 6.86%
12,CP(=O)(Nc1ccccn1)Oc1ccccc1 (stereo not given),inactive: 0.3%
13,COc1ccccc1OP(C)(=O)Nc1ccc(C)cc1C (stereo not given),inactive: 3.36%
14,CCc1ccc(OP(C)(=O)O)cc1,inactive: 2.14%
15,O=C1C(O)=C([N+](=O)[O-])C(=O)C(O)=C1[N+](=O)[O-],inactive: 7.74%
16,Cc1cc(C)cc(OP(C)(=O)Nc2cccc(C(F)(F)F)c2)c1 (stereo not given),inactive: 2.6%
17,COc1ccccc1OP(C)(=O)Nc1ccc(C)c(C)c1 (stereo not given),inactive: 3.24%
18,COc1ccc(OP(C)(=O)Nc2ccccc2Br)cc1 (stereo not given),inactive: 1.12%
19,CCCCCCCCCCCCCCCC1C[N+](C)(C)CCOP(C)(=O)O1 (stereo not given),inactive: -2.72%
20,CP(=O)(Nc1ccc(Cl)cc1Cl)Oc1ccccc1 (stereo not given),inactive: 3.12%
21,CP(=O)(OCCOc1ccccc1)OCCOc1ccccc1,inactive: 2.18%

# Source: PubChem BioAssay AID492953 (The Scripps Research Institute Molecular Screening Center, 2010)
